## Antibody variant affinities, Ab-14 heavy chain, assay 1

Target: peptide PDVDLGDISGINAS, taken from heptad repeat 2 (HR2) of SARS-CoV-2 spike.

Parent: Ab-14, a human scFv built as VH, a (GGGGS)3 linker, VL. Only the CDRs of the heavy chain vary.
VH: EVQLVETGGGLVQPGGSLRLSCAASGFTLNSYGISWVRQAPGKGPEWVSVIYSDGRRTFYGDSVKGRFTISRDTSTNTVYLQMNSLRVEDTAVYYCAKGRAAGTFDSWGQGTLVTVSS
VL: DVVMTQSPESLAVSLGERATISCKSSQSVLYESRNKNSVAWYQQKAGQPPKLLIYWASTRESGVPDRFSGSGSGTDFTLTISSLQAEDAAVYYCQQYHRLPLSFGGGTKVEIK

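The library (AAYL49) carries one to three amino acid substitutions per variant, with no insertions or deletions. The assay is AlphaSeq: two haploid yeast populations carry antibody and antigen on their surface. After mating in shaken culture at 30 °C for 16 h, diploids were selected and their barcode pairs sequenced. Scores were corrected for input abundance and mapped to Kd with protein pairs of known affinity run in the same pool. Mating was done three times.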

Each variant is given by its three heavy chain CDRs, as the data file delimits them; those of the parent are GFTLNSYGIS, VIYSDGRRTFYGDSVK, GRAAGTFDS.
Numbers give log10(Kd / nM), so 0 is 1 nM and 3 is 1 µM. Smaller is tighter.
A mean of the replicates is given; it leaves out those without a signal.
"n.d." marks a missing value. The strain was present, yet no cells mated with the target were sequenced in that replicate, which points to weak or no binding.
In this assay the parent's reference entry averaged 0.65; its copy inside this library read 4.11 (one replicate of three).
Nonspecific signal, from three strains lacking the peptide, appeared in 15% of pairings of library AAYL49, centred on 4.06 (5% of these signals below 2.83); values are not corrected for it. The control count says in how many pairings with the empty strains this scFv gave a signal, with their mean in brackets.

CDR-H1,CDR-H2,CDR-H3,"replicates, log10 nM","log10 Kd (nM), mean",empty controls
VFFLNSYGIS,VIYSDGRRTFYGDSVK,GRAAGTFDQ,n.d. / 5.01 / n.d.,5.01,1/9 (3.16)
DFTLNSYGIS,VCYSDGRRTFYGDSVK,GRNAGTFDS,n.d. / n.d. / 5.00,5.00,1/9 (3.92)
GFTLNSYGIS,VIYASGRRTFYGDGVK,GRAAGTFDS,3.87 / 2.52 / n.d.,3.19,0/9
GFTLNSYGIS,VIYSDGRRMFYGWSVK,GRAAGTFDS,n.d. / 3.34 / 3.66,3.50,2/9 (4.27)
GFTLNSYGIS,VIYSDTRMTFYGDSVK,GRAAGTFDL,n.d. / n.d. / n.d.,n.d.,0/9
GFTLNSYGIS,VGYSDQRRTFYGDSVK,GRAAGTFLS,n.d. / n.d. / n.d.,n.d.,0/9
QFTLYSYGIS,VIYSDGRETFYGDSVK,GRAAGTFDS,n.d. / n.d. / n.d.,n.d.,0/9
GFTLNSYGIR,VIYSDGRRTEYGDSVK,GRAAYTFDS,n.d. / n.d. / 3.73,3.73,1/9 (2.37)
GFTLNSYGIM,VIKSDGRRTFYGDSVK,GAAAGTFDS,n.d. / 3.52 / n.d.,3.52,0/9
GFTLNSYGIS,VIYSDGRRTFYGESVD,GRAAGTFDN,1.45 / 1.58 / 1.40,1.48,0/9
GFTLNSYGIS,VIESDGARTFYGDSVK,GRAAGTFDF,4.08 / n.d. / n.d.,4.08,0/9
GFTLNSYGII,IIGSDGRRTFYGDSVK,GRAAGTFDS,n.d. / 5.10 / n.d.,5.10,0/9
GFTLNSIGIS,VIYSDGRRTFYLDSVK,HRAAGTFDS,n.d. / n.d. / 2.28,2.28,1/9 (2.59)
GFPLNSYGIS,VIYSAGRRTFYGDSVK,GRAAGAFDS,n.d. / n.d. / n.d.,n.d.,0/9
GFTLNSYGIT,VIYSDGRFTFYHDSVK,GRAAGTFDS,n.d. / 3.51 / n.d.,3.51,0/9
GFTKNSYGIM,VIYSDGRRTFYGDSVK,GRAAGTFGS,n.d. / n.d. / n.d.,n.d.,2/9 (3.35)
GFTLNSFGIL,VIYSDGRRTFYGDSDK,GRAAGTFDS,6.39 / 4.71 / 4.58,5.23,1/9 (4.90)
GFTLNSYEIS,VIYSDGRRTAYGDNVK,GRAAGTFDS,n.d. / n.d. / n.d.,n.d.,3/9 (3.90)
GFTLNSYGIS,VIYSDGRRTFYGDSVK,GKAAGTADS,n.d. / 3.62 / n.d.,3.62,3/9 (4.82)
LFTLNSYGIS,VIYSDGRRAFHGDSVK,GRAAGTFDS,n.d. / n.d. / n.d.,n.d.,0/9
GFTLNSYGIS,VIYSQGDRTFYGDSVK,GRAYGTFDS,n.d. / n.d. / n.d.,n.d.,1/9 (3.23)
GFTLNSYGIS,VIYSDSRRTFYGDSVK,GRAAGTFLS,n.d. / n.d. / n.d.,n.d.,0/9
IFTLNSYGIS,VIYSDFRRTQYGDSVK,GRAAGTFDS,n.d. / n.d. / n.d.,n.d.,0/9
FFTLNSYGIS,VIYSDGRRTKYGDDVK,GRAAGTFDS,n.d. / n.d. / n.d.,n.d.,0/9
GATLNSYGIS,VIYSDFRRTFYGDSVK,GRAAGTMDS,n.d. / n.d. / n.d.,n.d.,1/9 (2.78)
GFTLNSAGIS,VPYSDGRRTFYGDSVK,GRAAGTFDS,4.61 / 5.13 / 5.88,5.21,6/9 (4.53)
GFTLNSYGIS,VMMSDGRRTFYGDSVK,GYAAGTFDS,3.07 / n.d. / n.d.,3.07,2/9 (3.60)
GFTLNSYGIS,VIYGDGRRTFYGDSVK,GRAAGTFDL,1.30 / 1.72 / 1.64,1.55,2/9 (3.20)
GFTLNSYGIS,VIASDGRRTFYGDAVT,GRAAGTFDS,n.d. / n.d. / 3.51,3.51,1/9 (5.04)
GFTLESYGIS,VIGSDGRRTFYGDSVK,GRAAGYFDS,6.36 / n.d. / n.d.,6.36,3/9 (3.88)
GFTLNSYGIG,VIYSFGRRTFYGDSVQ,GRAAGTFDS,n.d. / n.d. / n.d.,n.d.,0/9
GFTLNSYGIS,VIYSDGRRTFYGDSVK,GRAYITFDS,1.35 / 1.33 / 1.38,1.35,1/9 (4.06)
GFTLWSYGTS,TIYSDGRRTFYGDSVK,GRAAGTFDS,n.d. / n.d. / n.d.,n.d.,0/9
GFTLNSQGIS,VIYSDGRRTFYGDSVE,GRAAGTFDS,2.65 / 2.35 / 2.58,2.52,4/9 (4.41)
GWTLNSEGIS,VIYSKGRRTFYGDSVK,GRAAGTFDS,n.d. / n.d. / n.d.,n.d.,1/9 (3.15)
GFTLNSYGIS,VTYSDGRRTFYGDSEK,GRAAGTFSS,n.d. / n.d. / 4.23,4.23,1/9 (3.74)
LFTLNSYGIS,VIYSDGRRTSYGDSVF,GRAAGTFDS,n.d. / n.d. / n.d.,n.d.,1/9 (2.88)
GFTLNSYGIV,VIYSDGWRTFYIDSVK,GRAAGTFDS,4.79 / n.d. / n.d.,4.79,1/9 (2.99)

For reference, 6 entries of the list once more:

CDR-H1	CDR-H2	CDR-H3	replicates, log10 nM	log10 Kd (nM), mean	empty controls
GFTLWSYGTS	TIYSDGRRTFYGDSVK	GRAAGTFDS	n.d. / n.d. / n.d.	n.d.	0/9
GFTLNSYGIS	VIYSDGRRTFYGDSVK	GKAAGTADS	n.d. / 3.62 / n.d.	3.62	3/9 (4.82)
GFTLNSYGIT	VIYSDGRFTFYHDSVK	GRAAGTFDS	n.d. / 3.51 / n.d.	3.51	0/9
GFTLNSYGIR	VIYSDGRRTEYGDSVK	GRAAYTFDS	n.d. / n.d. / 3.73	3.73	1/9 (2.37)
GFTLNSYGIS	VGYSDQRRTFYGDSVK	GRAAGTFLS	n.d. / n.d. / n.d.	n.d.	0/9
GFTLNSYGIS	VIYSDSRRTFYGDSVK	GRAAGTFLS	n.d. / n.d. / n.d.	n.d.	0/9

Data: MIT Lincoln Laboratory AlphaSeq set, Engelhart et al. 2022, doi:10.1038/s41597-022-01779-4, as distributed in FLAb.